# This is a selection: effects in other tests are not listed, and their absence says nothing.
# System: HaCaT and HEKn cells expressing RIP3
# Assay: SNP treatment of HaCaT and HEKn cells, MTT assay and western blotting
# Experimental: In order to identify the association between SNP and RIP3 observed in TEN, HaCaT and HEKn cells expressing RIP3 were treated with 0 to 5 mM SNP for 24 hours, and cell viability and phosphorylation of relevant factors were analyzed by MTT assay and western blotting.
substance,measurement,setting,value
sodium nitroprusside,"cell death (cell viability, MTT assay)",0 to 5 mM SNP for 24 hours,induced dose-dependent necrotic cell death
same,phosphorylation of MAPK (western blotting),SNP treatment over time,phosphorylation of MAPK over the treatment time

# — patent US10624891B2, “Method of diagnosing and treating skin necroptosis disease comprising RIP3-MLKL pathway blocker” (Ajou University Industry-Academic Cooperation Foundation, priority 2015, dated 2020)
